{"source": "PubChem BioAssay AID624287", "about": "(National Center for Advancing Translational Sciences (NCATS), 2012)", "note": "What follows is the remainder of the data, with few or none of the hits. Results filed as inconclusive are left out. Calls of active or inactive are those of the source. The call rests on the fitted dose curve; in most records, active means well fitted activation curve with a large enough effect; inconclusive means small, poorly fitted or top-dose-only effect, or another doubt; inactive means no such curve, though single readings can be large or run the other way; cell line not stated here.", "data": [{"test": "qHTS for Agonist of gsp, the Etiologic Mutation Responsible for Fibrous Dysplasia/McCune-Albright Syndrome: qHTS;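 further: phosphodiesterase inhibitor Ro 20-1724 added with compounds to block cAMP breakdown; nearly all actives have a fitted effect of over 60% in size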", "details": "gsp mutant cells, cAMP HTRF, 30 min; at 76.9 µM (top of the series)", "text": "McCune-Albright syndrome (MAS) is a rare disease caused by somatic mutations in Gsgsp), a widely expressed protein central in signal transduction from G-coupled protein receptors (GPCRs). The disease symptoms are diverse, owing to the fact that the patients are mosaics with varying degrees of tissue involvement. Greater than 90% of the mutations in Gs in MAS occur at the R201 position and are equally divided between R201H and R201C. The R201 residue is central in the intrinsic GTPase activity of Gs and the H and C mutations lead to loss of, or impairment of, the GTPase activity. […] The tissue phenotype is determined by the role of Gs in the function of a given cell, and excess Gs/cAMP signaling in that cell. […]\n1.#Seed 2000 cells/well in 6 ul DMEM 10% FBS, 1% Pen/Strep, 0.5 mg/ml G418 2.#Incubate 16-24 hr at 37C, 5% CO2, 95% humidity 3.#Aspirate leaving 1 ul residual volume 4.#Dispense 5 ul/well DPBS + 1 mM CaCl2, 0.5 mM MgCl2, 0.05% BSA, 0.005% Tween 20 5.#Aspirate leaving 2 ul residual volume 6.#Dispense 23 nl/well compounds in DMSO 7.#Dispense 1 ul/well 300 uM Ro-20174 in DMEM 10% FBS 8.#Incubate 30 min at 37C, 5% CO2, 95% humidity 9.#Dispense 1.5 ul/well HTRF reagent: cAMP-d2 in lysis buffer 10.#Dispense 1.5 ul/well HTRF reagent: anti-cAMP antibody-K in lysis buffer 11.#Incubate 30 min at room temperature 12.#Detect HTRF signal using EnVision plate reader", "values": [{"smiles": "COc1ccc(CC(C)NCC(O)c2ccc(O)c(NC=O)c2)cc1", "note": "(stereo unspecified)", "activation (cAMP increase)": "inactive: -34%"}]}]}
